The values that follow come from PubChem BioAssay (EPA / NIEHS).

Amino acid sequences for entries named in this document (tags omitted).
UniProt P37136, whole entry: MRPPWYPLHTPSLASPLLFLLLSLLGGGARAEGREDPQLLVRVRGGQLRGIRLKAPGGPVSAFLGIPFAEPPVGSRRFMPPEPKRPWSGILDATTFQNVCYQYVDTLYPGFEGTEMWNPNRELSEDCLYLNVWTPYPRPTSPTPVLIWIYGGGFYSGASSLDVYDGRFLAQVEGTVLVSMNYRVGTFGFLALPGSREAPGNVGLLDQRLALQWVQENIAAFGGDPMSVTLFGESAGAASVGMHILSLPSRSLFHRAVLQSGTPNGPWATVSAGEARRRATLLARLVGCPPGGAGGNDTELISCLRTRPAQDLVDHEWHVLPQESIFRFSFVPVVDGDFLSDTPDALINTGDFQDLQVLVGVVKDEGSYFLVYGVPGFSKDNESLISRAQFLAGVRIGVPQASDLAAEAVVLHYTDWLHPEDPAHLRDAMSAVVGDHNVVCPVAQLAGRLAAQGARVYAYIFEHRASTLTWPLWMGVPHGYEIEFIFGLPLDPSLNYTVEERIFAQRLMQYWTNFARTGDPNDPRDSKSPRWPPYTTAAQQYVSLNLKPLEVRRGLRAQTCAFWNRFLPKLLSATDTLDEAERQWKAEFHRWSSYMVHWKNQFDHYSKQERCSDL
UniProt Q9Y233, whole entry: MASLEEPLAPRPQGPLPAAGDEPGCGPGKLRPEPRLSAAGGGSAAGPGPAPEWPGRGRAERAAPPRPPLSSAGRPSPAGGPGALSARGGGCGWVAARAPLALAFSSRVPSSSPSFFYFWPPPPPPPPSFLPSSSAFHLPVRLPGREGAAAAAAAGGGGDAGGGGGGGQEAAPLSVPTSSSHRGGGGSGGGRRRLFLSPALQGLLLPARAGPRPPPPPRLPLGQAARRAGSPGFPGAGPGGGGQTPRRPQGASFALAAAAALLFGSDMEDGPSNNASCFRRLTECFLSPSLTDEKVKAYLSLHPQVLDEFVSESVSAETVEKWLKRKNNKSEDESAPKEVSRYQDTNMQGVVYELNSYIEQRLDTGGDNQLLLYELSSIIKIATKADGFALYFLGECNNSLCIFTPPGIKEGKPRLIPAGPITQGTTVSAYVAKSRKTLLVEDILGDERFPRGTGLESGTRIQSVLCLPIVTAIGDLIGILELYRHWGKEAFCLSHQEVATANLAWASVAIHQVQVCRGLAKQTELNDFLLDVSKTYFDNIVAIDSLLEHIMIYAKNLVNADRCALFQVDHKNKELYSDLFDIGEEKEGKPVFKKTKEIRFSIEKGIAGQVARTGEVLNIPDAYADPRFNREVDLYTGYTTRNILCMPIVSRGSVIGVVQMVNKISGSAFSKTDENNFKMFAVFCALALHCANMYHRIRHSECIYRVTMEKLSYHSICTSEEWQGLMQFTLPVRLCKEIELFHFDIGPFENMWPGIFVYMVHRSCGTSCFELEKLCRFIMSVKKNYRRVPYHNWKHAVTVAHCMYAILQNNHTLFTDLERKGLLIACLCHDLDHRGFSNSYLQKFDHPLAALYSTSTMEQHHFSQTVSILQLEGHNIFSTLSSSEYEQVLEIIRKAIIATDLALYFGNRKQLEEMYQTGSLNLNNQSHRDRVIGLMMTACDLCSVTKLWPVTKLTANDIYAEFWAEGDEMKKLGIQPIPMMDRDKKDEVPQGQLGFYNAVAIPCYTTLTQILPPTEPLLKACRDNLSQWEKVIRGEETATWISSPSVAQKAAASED
UniProt P21728, whole entry: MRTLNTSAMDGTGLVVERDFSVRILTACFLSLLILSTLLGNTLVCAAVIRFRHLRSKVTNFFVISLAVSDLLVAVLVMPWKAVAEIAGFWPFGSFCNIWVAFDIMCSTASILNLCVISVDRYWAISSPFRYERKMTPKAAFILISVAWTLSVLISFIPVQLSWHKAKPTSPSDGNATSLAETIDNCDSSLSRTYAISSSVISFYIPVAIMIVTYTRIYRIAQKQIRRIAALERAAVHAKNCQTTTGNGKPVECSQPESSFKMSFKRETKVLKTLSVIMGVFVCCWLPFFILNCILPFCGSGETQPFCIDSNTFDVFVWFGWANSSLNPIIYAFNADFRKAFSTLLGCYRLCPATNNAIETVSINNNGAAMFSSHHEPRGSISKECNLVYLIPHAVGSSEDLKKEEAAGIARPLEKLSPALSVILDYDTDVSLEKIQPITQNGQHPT
UniProt P48730, whole entry: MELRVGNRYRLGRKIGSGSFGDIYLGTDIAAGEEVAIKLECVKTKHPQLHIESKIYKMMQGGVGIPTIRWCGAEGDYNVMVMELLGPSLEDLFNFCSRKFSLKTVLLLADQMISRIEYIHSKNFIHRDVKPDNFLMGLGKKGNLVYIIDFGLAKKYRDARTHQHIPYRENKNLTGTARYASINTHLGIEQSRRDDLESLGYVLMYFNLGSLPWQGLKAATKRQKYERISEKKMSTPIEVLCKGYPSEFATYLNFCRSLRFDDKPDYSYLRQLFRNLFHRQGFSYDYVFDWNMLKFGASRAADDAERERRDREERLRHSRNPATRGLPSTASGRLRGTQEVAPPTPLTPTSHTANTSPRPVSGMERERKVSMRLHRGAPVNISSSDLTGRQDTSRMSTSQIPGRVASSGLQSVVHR
UniProt Q04400, whole entry: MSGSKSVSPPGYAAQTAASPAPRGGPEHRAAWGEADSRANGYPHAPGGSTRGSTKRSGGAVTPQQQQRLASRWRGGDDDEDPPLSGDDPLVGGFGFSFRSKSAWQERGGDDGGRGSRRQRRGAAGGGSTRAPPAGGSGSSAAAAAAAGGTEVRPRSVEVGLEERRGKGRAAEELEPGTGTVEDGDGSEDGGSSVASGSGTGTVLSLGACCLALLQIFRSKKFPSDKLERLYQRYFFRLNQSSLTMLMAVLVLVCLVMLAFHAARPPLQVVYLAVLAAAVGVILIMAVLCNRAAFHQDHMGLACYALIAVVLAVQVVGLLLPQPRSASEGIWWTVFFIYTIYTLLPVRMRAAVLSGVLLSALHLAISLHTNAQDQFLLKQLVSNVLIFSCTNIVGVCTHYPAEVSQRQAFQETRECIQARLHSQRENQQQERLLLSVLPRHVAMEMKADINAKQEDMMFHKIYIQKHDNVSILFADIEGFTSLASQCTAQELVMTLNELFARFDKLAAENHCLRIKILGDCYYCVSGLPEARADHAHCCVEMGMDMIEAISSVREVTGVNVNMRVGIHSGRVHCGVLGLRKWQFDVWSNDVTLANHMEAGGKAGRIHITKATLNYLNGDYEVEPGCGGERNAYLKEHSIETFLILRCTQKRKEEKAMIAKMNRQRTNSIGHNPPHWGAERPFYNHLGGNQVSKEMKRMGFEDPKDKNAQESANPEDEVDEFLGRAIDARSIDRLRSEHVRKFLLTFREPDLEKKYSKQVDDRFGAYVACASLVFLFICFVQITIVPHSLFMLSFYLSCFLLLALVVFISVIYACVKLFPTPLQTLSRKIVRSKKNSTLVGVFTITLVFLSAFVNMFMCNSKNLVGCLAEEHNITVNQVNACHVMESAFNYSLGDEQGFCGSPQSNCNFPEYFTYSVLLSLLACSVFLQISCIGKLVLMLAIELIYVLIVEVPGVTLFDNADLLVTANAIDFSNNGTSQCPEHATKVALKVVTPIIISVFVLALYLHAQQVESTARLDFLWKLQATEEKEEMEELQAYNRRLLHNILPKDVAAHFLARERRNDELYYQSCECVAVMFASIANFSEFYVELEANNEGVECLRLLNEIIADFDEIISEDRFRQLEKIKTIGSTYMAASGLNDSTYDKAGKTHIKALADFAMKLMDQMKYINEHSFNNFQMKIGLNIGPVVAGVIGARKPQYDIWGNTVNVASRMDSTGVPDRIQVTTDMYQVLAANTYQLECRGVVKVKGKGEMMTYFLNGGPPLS
UniProt O97775, whole entry: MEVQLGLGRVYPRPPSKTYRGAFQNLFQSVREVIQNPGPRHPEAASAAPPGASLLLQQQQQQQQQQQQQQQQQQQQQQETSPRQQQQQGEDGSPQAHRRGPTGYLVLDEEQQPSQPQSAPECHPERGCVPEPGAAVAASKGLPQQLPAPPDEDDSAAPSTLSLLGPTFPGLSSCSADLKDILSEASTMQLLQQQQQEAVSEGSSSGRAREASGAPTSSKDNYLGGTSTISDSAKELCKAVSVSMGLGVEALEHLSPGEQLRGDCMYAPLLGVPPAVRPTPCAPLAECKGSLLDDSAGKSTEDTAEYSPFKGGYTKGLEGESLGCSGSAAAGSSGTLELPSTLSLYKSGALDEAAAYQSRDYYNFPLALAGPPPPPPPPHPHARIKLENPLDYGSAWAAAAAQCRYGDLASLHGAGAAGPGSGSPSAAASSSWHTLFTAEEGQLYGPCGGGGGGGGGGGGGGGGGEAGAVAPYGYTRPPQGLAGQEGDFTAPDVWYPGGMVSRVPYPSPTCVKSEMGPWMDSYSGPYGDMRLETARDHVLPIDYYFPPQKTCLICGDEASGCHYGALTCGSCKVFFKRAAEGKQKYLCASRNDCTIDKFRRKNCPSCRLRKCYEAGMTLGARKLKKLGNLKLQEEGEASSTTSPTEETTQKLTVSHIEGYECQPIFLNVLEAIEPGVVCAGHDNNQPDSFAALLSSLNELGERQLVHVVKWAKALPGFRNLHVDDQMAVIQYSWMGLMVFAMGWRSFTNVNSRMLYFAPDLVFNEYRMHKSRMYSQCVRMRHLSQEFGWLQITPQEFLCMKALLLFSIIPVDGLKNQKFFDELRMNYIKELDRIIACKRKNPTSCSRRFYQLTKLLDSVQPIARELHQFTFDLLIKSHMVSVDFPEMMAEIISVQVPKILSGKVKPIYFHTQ
UniProt P19793, whole entry: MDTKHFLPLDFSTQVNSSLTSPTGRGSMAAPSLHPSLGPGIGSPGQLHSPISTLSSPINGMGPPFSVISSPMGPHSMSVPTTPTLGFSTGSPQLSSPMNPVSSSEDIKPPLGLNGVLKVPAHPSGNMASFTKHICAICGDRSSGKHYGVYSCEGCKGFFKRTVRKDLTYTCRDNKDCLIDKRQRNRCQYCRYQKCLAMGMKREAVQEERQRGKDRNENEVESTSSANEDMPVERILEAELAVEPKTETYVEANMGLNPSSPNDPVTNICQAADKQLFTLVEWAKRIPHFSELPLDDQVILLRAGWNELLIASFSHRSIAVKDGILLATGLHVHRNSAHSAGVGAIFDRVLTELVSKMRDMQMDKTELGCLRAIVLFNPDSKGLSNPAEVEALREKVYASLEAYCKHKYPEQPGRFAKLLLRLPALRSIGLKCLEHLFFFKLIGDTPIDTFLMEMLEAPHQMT
UniProt P22303, whole entry: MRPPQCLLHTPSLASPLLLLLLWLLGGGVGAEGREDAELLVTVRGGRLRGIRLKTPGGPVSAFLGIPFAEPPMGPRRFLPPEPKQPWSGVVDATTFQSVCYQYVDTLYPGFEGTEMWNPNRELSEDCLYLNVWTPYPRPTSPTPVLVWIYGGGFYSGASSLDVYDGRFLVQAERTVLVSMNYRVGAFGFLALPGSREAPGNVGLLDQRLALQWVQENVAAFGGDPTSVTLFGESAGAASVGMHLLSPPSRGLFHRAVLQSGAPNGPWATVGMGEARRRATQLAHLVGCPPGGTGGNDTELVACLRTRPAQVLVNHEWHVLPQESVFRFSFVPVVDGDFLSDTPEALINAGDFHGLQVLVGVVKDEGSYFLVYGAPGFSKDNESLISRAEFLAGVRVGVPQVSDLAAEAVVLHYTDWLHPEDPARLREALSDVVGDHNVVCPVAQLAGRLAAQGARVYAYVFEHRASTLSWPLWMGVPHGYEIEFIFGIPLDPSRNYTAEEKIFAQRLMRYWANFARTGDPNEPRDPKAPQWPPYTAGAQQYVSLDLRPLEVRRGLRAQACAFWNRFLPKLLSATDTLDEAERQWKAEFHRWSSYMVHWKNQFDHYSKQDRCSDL
UniProt P11511, whole entry: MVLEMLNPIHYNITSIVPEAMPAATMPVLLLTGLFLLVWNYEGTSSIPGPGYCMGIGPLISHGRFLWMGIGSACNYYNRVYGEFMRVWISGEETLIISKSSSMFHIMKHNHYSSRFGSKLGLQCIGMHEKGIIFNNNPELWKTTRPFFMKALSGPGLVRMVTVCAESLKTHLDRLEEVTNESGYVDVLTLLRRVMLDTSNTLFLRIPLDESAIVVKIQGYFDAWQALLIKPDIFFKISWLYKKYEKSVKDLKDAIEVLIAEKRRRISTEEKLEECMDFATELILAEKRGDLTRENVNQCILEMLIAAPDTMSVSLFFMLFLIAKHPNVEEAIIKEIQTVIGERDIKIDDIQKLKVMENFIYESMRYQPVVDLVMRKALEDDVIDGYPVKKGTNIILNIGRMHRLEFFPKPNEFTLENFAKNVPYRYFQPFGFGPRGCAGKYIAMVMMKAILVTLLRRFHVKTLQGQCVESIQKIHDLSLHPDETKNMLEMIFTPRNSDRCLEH

For experiment [1], the target named is rat Acetylcholinesterase (AChE), Ache (gene 83817) (UniProt P37136). As to the kind of experiment: NVS_ENZ_rAChE: NovaScreen (NVS) Enzymatic Assay for rat Acetylcholinesterase (AChE) (AID 2283233). Summed up: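 Compounds first screened at 25 uM in duplicate, then those passing threshold tested in concentration series up to 50 uM, against AChE from rat brain membranes. Enzyme activity read by absorbance at 0.33 h; inhibition scored versus DMSO.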

The target in experiment [2] is human Phosphodiesterase 10 (PDE10), PDE10A (gene 10846) (UniProt Q9Y233). Kind of experiment: NVS_ENZ_hPDE10: NovaScreen (NVS) Enzymatic Assay for human Phosphodiesterase 10 (PDE10) (AID 2283195). The method in brief: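 Readout is fluorescence intensity following electrophoretic mobility-shift separation, 1 h after dosing of isolated PDE10A protein. Hits meeting a preset threshold at 25 uM went to concentration series (max 50 uM), analysed relative to DMSO.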

Experiment [3] addresses human Adenosine A2a Receptor (AdoRA2a), ADORA2A (gene 135) (UniProt P29274). Kind of experiment: NVS_GPCR_hAdoRA2a: NovaScreen (NVS) G Protein-Coupled Receptor Assay for human Adenosine A2a Receptor (AdoRA2a) (AID 2283256). Summed up: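 Compounds screened in duplicate at 25 uM, with actives followed up in concentration series, for displacement of a radioligand from HEK293-derived receptor protein. Bound counts read by filter scintillation at 1.5 hours, DMSO as baseline.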

Read-out in experiment [4]: E-selectin (Homo sapiens) (UniProt P16581)
As to the kind of experiment: BSK_SAg_Eselectin: BioMAP Diversity Plus: SAg Assay for Eselectin Biomarker Activity (AID 2283091; active means hit-call score of the fitted dose curve at least 0.9, where 1 is the maximum; inactive means score below 0.9). The conditions noted are these: actives raise or lower the signal; primary human HUVEC with PBMC. The method in brief:
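Co-culture: HUVEC + PBMC. Dose compound; 24 h. ELISA for E-selectin. Bidirectional fit vs DMSO.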

Read-out in experiment [5]: Monokine induced gamma interferon (MIG), CXCL9 (gene 4283)
As to the kind of experiment: BSK_SAg_MIG: BioMAP Diversity Plus: SAg Assay for Monokine induced gamma interferon (MIG) Biomarker Activity (AID 2283092; active means hit-call score of the fitted dose curve at least 0.9, where 1 is the maximum; inactive means score below 0.9). The conditions noted are these: actives raise or lower the signal; primary human HUVEC with PBMC. The method in brief: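 ELISA readout of MIG/CXCL9; primary human umbilical vein endothelial cells co-cultured with peripheral blood mononuclear cells; 24 h post-dose; gain/loss fit vs DMSO baseline.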

Experiment [6] in a line: BSK_SAg_PBMCCytotoxicity: PBMC Cytotoxicity Assessment in the BioMAP Diversity Plus: SAg Assay (AID 2283093; active means hit-call score of the fitted dose curve at least 0.9, where 1 is the maximum; inactive means score below 0.9;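 further: PBMC viability measured as Alamar Blue reduction fluorescence at 546/580 nm; fitted both ways against DMSO so a hit may be loss or gain of signal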). The conditions noted are these: primary human HUVEC with PBMC. The method in brief:
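Alamar Blue reduction (6 h, 546/580 nm) reports PBMC cytotoxicity after 90 h superantigen activation (SEB, TSST-1; 20 ng/mL final each) with 1 h compound pre-treatment. Gain or loss of signal fitted versus DMSO.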

Read-out in experiment [7]: Interleukin-8 (IL8), CXCL8 (gene 3576)
As to the kind of experiment: BSK_SAg_IL8: BioMAP Diversity Plus: SAg Assay for Interleukin-8 (IL8) Biomarker Activity (AID 2283094; active means hit-call score of the fitted dose curve at least 0.9, where 1 is the maximum; inactive means score below 0.9). Conditions: actives raise or lower the signal; primary human HUVEC with PBMC. Summed up:
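Chemicals were dosed onto a human endothelial–PBMC co-culture, and IL-8 was quantified by ELISA after 24 h. Both increases and decreases were fitted relative to DMSO.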

Experiment [8] is described as follows: BSK_SAg_Proliferation: Cell Proliferation Assessment in the BioMAP Diversity Plus: SAg Assay (AID 2283095; active means hit-call score of the fitted dose curve at least 0.9, where 1 is the maximum; inactive means score below 0.9;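 further: relative cell number as total protein by SRB absorbance in sub-confluent culture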). Conditions: primary human HUVEC with PBMC. The method in brief: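 Absorbance of sulforhodamine B at 560 nm reports total protein in a human vascular endothelial/PBMC co-culture after 96 h chemical exposure. Gain or loss of signal is fitted in both directions against DMSO.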

Experiment [9] can be described thus: BSK_SAg_SRB: Viability Assessment in the BioMAP Diversity Plus: SAg Assay (AID 2283096; active means hit-call score of the fitted dose curve at least 0.9, where 1 is the maximum; inactive means score below 0.9;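 further: cells read one day after compound addition; hits may be either gain or loss of signal compared with DMSO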). Conditions: primary human HUVEC with PBMC. Summed up: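 This overt-cytotoxicity endpoint quantifies protein in human endothelial/PBMC co-cultures at 24 h using SRB absorbance (560 nm) after trichloroacetic acid fixation. Values reflect signal change from the DMSO negative control, fitted bidirectionally.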

In experiment [10] the target is human Adenosine A1 Receptor (AdoRA1), ADORA1 (gene 134) (UniProt P30542). As to the kind of experiment: NVS_GPCR_hAdoRA1: NovaScreen (NVS) G Protein-Coupled Receptor Assay for human Adenosine A1 Receptor (AdoRA1) (AID 2283254). Summed up: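 Radioligand competition binding on human cortical membranes, 1 h after compound addition; bound radioactivity read by filtration and scintillation counting. Loss of signal versus DMSO baseline scored as displacement; primary screen duplicate at 25 uM, actives retested in concentration series.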

The target of experiment [11] is D(1A) dopamine receptor (Homo sapiens) (UniProt P21728). Kind of experiment: NVS_GPCR_hDRD1: NovaScreen (NVS) G Protein-Coupled Receptor Assay for human Dopamine Receptor D1 (DRD1) (AID 2283269). Summed up: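 Cell-free competition with radioligand, filter-trapped and scintillation-counted 1 h post-dose, using HEK293-derived human D1 preparation. Duplicate single-point testing at 25 uM first, then concentration series for actives; DMSO served as baseline, loss-of-signal scored.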

The target in experiment [12] is human Casein Kinase 1-delta (CK1D), CSNK1D (gene 1453) (UniProt P48730). As to the kind of experiment: NVS_ENZ_hCK1D: NovaScreen (NVS) Enzymatic Assay for human Casein Kinase 1-delta (CK1D) (AID 2283148). Summed up: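 Recombinant human CK1-delta, cell-free; fluorescent substrate with electrophoretic mobility-shift separation of product, read 1 h after dosing. Single 25 uM duplicate screen, then concentration-response up to 50 uM; loss of signal vs DMSO.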

The target of experiment [13] is rat Adenylate Cyclase, Forskolin Stimulated, Adcy5 (gene 64532) (UniProt Q04400). As to the kind of experiment: NVS_ENZ_rACFSKBinding: NovaScreen (NVS) Enzymatic Assay for rat Adenylate Cyclase, Forskolin Stimulated (AID 2283232). The method in brief: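 Chemicals were first tested at 25 uM in duplicate, then hits run as concentration series with top concentration 50 uM. Enzyme source was rat forebrain membranes; radiometric filter read-out after 1 h, referenced to DMSO.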

For experiment [14], the system named is rat Monoamine Oxidase, MAO-A, Peripheral (MAOAP), gene 29253. Kind of experiment: NVS_ENZ_rMAOAP: NovaScreen (NVS) Enzymatic Assay for rat Monoamine Oxidase, MAO-A, Peripheral (MAOAP) (AID 2283237). The method in brief: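 Scintillation counting tracked MAO-A activity in a cell-free rat liver mitochondrial membrane prep, read 1.17 hours after compound addition. Single-point duplicate testing at 25 uM preceded concentration-response follow-up; activity was fitted relative to DMSO.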

Experiment [15] addresses chimpanzee Androgen Receptor (AR), AR (gene 747460) (UniProt O97775). Kind of experiment: NVS_NR_cAR: NovaScreen (NVS) Nuclear Receptor Binding Assay for chimpanzee Androgen Receptor (AR) (AID 2283346).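 Further: radioligand displacement from AR measured by scintillation counting in a cell-free assay.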 Summed up:
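Cell-free radioligand displacement using receptor protein extracted from Sf9/Sf21 cells; bound radioligand measured by scintillation counting 72 hours after chemical dosing. Loss of signal versus DMSO baseline indicates binding; primary screen single-concentration in duplicate at 25 uM, actives followed in concentration series.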

For experiment [16], the target named is Peroxisome proliferator-activated receptor gamma (Homo sapiens) (UniProt P37231). Kind of experiment: NVS_NR_hPPARg: NovaScreen (NVS) Nuclear Receptor Binding Assay for human Peroxisome Proliferator-activated Receptor gamma (PPARg) (AID 2283370). The method in brief:
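Chemicals were tested first in duplicate at 25 uM, then in concentration series if active. Binding to cell-free PPARg protein was measured by fluorescence polarization after 2 h, with loss of signal scored against DMSO.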

In experiment [17] the target is Retinoic acid receptor RXR-alpha (Homo sapiens) (UniProt P19793). Kind of experiment: OT_NURR1_NURR1RXRa_0480: Odyssey Thera (OT) 8-hour HEK293T Protein Complementation Assay for Nurr1/retinoid X receptor (RXR) (AID 2283385). Summed up:
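Interaction of bait and prey reconstitutes a functional reporter, whose fluorescence was measured in HEK293T cells dosed with compound for 8 hours. Signal gain relative to DMSO defined the single endpoint.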

In experiment [18] the target is human Acetylcholinesterase (AChE), ACHE (gene 43) (UniProt P22303). As to the kind of experiment: NVS_ENZ_hAChE: NovaScreen (NVS) Enzymatic Assay for human Acetylcholinesterase (AChE) (AID 2283129). Summed up:
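Actives from a duplicate single-point screen (25 uM) were followed up in concentration series. Enzyme activity read by absorbance (colorimetric) 0.33 hour after dosing, cell-free, normalized to DMSO, with loss of signal scored.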

Experiment [19] deals with human CYP19A1, CYP19A1 (gene 1588) (UniProt P11511). As to the kind of experiment: NVS_ADME_hCYP19A1: NovaScreen (NVS) CYP450-related Enzyme Activity (ADME) Assay for human CYP19A1 (AID 2283098). The method in brief:
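Compounds were first screened at 10 uM in duplicate against purified enzyme, with a fluorogenic substrate and fluorescence intensity detection after 0.5 h. Inhibition appears as reduced signal against acetonitrile control.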

Experiment [20] deals with sheep Cyclooxygenase-1 (Cox1), PTGS1 (gene 443551) (UniProt P05979). Kind of experiment: NVS_ENZ_oCOX1: NovaScreen (NVS) Enzymatic Assay for sheep Cyclooxygenase-1 (Cox1) (AID 2283239).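 Further: actives reduce cyclooxygenase activity so potencies are for inhibitors.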 The method in brief:
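Absorbance read-out of cyclooxygenase activity in a cell-free preparation from sheep seminal vesicles, taken 0.66 hour after dosing. Initial testing was in duplicate at 25 uM, and confirmatory testing was run in concentration series.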

Only a part is listed here, and it is no random draw. Inconclusive results are not listed. Calls of active or inactive are those of the source. How the source made its calls, unless noted: active means hit-call score of the fitted dose curve at least 0.9, where 1 is the maximum; inconclusive means response in the unintended direction; inactive means score below 0.9.

As to `COc1ccc([N+](=O)[O-])cc1[N+](=O)[O-]`, the half-maximal activity concentration (AC50) (usually the concentration giving half of the maximal activity seen) in experiment [1] is active: 17.9 µM.

Turning to `Cc1ccc([N+](=O)[O-])c([N+](=O)[O-])c1`, in experiment [1], the AC50 is active: 12.2 µM.

For the compound `ClCCNCCCl`, the call in experiment [2] and in experiment [3] was inactive.

With `Cc1cccc([N+](=O)[O-])c1[N+](=O)[O-]`, the AC50 in experiment [1] was active: 14.2 µM.

Consider `CC(C)OP(OC(C)C)OC(C)C`, for which the result in experiment [4], in experiment [5], in [6], in experiment [7], in experiment [8] and in [9] was inactive. Further, the result in experiment [10] and in experiment [11] was inactive.

As to `O=[N+]([O-])c1ccccc1[N+](=O)[O-]`, the AC50 was active: 3.97 µM in experiment [4], active: 28.5 µM in [8], active: 10.1 µM in [14] and active: 18.5 µM in experiment [15]. In addition, the outcome in experiment [5], in [6], in experiment [7], in [9], in experiment [12] and in experiment [13] was inactive. Further, the compound was called inactive in experiment [16] and in experiment [17].

As to `Cc1ccc([N+](=O)[O-])cc1[N+](=O)[O-]`, the outcome in experiment [18] and in experiment [1] was inactive.

For the compound `Cc1c([N+](=O)[O-])cccc1[N+](=O)[O-]`, in experiment [18], the result was inactive. Further, in experiment [1], the AC50 was active: 25.8 µM.

For `ClCCOP(OCCCl)OCCCl`, the outcome in experiment [19], in [20] and in experiment [16] was inactive.
